Measurements reported in patent US20150143553A1, “Methods And Compositions Comprising A Drosophila Model Of Amyotrophic Lateral Sclerosis” (priority 2013, published 2015).
Counter-ions that a name gives are not always drawn.

Test system: Drosophila larvae expressing wild-type TDP-43 in motor neurons
Assay: Drug screen: rescue of lethality caused by wild-type TDP-43 expression in motor neurons (D42 Gal4)
Settings: transgene WT2

| Structure (SMILES) | Preliminary rescue result: adults with normal wings (50 μM in fly food) | Preliminary rescue result: adults with normal wings (30 μM in fly food) [Adult Normal Wings Adults] |
| --- | --- | --- |
| COC1=C(OC)C(=O)C(CCCCCCCCCCO)=C(C)C1=O [Idebenone] | 3 Adults Normal Wings |  |
| CC(=O)c1ccc(S(=O)(=O)NC(=O)NC2CCCCC2)cc1 [Acetohexamide] | 1 Adult Normal Wings Adults |  |
| CC(CN(C)C)C(C)(O)Cc1ccc(Cl)cc1 (stereo not shown) [Clobutinol HCl] | 2 Adults Normal Wings |  |
| CCCCC1C(=O)N(c2ccccc2)N(c2ccc(O)cc2)C1=O (stereo not shown) [Oxphenbutazone] |  | 1 |
